The values below come from paper PMC11765156, “New Brusatol Derivatives as Anti-Settlement Agents Against Barnacles, Targeting HSP90: Design, Synthesis, Biological Evaluation, and Molecular Docking Investigations” (International Journal of Molecular Sciences, 2025).

The series has as its system Balanus amphitrite. The series can be described thus: Anti-settlement assay with barnacle cyprid larvae (settlement inhibition and mortality, 48 h). It counts as in vivo. As for the experimental part:
Compounds dissolved in DMSO were sequentially administered to the wells, starting with a concentration of 25 µg/mL and proceeding with serial half-logarithmic dilutions. The volume of the compound in each well was maintained at […], with seawater as the blank control, DMSO as the negative control, and SeaNine 211 serving as the positive control. Utilizing a stereo microscope, a 1 mL micropipette was employed to introduce 995 μL of seawater and between 21 and 25 cyprid larvae into each well of a 24-well plate. Subsequently, the plates were incubated in a darkened, temperature-controlled environment for 48 h. […] This observation facilitated the calculation of mortality and settlement rates of the barnacle cyprids, crucial for assessing the antifouling properties of the compounds. The determination of EC50 values for the inhibition of barnacle larval attachment and LC50 values for larval mortality offered an evaluation of the compounds’ efficacy in deterring barnacle larval adherence and their associated toxicity.

As to brusatol [B1, reference compound], the “LC50 (larval mortality)” value (Balanus amphitrite cyprid larvae, 48 h incubation) is 56.1254 ± 5.2154 µg/mL. For the same substance, the LC50/EC50 (Balanus amphitrite, ratio >15 indicating low toxicity) is recorded as 20.1701.
